Source: patent EP4631938A1, “NITROGEN-CONTAINING HETEROCYCLE WITH SEROTONIN RECEPTOR-BINDING ACTIVITY AND CARBOCYCLIC DERIVATIVE” (Shionogi & Co., Ltd, priority 2022, dated 2024)

Protein sequences, listed by entry. Tags and fused reporters are not part of them. Residues count along the entry.
UniProt P28335, 33-458 limits assumed: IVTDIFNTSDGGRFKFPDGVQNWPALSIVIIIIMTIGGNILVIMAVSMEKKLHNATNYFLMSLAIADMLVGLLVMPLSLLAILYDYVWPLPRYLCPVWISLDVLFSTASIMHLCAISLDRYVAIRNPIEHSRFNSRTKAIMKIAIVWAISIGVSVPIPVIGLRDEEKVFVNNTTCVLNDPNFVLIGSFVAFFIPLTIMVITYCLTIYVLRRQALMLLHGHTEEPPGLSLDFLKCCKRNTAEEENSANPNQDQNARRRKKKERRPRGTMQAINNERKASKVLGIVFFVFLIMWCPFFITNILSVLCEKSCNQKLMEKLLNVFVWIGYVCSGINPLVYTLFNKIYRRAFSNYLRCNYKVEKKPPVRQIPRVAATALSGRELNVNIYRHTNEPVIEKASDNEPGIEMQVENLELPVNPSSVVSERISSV

Target: human recombinant 5-HT2C receptor (Homo sapiens, UniProt P28335)
Assay: Test Example 2-2: 5-HT2C receptor binding inhibition test ([3H]-Mesulergine; non-specific ligand Ketanserin)
Settings: read-out: h 5-HT2C Ki, non-specific binding with 500 µmol/L Ketanserin, 37°C, 2 hours
Protocol: • Cell membrane: 0.5 µg of Jump-In HEK cell membrane (expressing human recombinant 5-HT2C receptor) per well • Assay buffer: 50 mmol/L Tris-HCl (pH 7.4) containing 120 mmol/L NaCl, 1 mmol/L MgCl2·6H2O, 5 mmol/L KCl, 0.1% BSA, and 2 mmol/L CaCl2 • Radioactive ligand: [^3H]-Mesulergine with a final concentration of around Kd value calculated by the following method • Non-specific ligand: Ketanserin at a final concentration of 500 µmol/L
The Kd value is calculated when the lot of the cell membrane is changed. 1 mmol/L non-specific binding calculating compound dissolved in DMSO or DMSO is previously dispensed to the microplate by 0.5 µL, and the cell membrane is diluted with an Assay buffer. […] The radioactivity of [^3H]-Mesulergine bound to the 5-HT2C receptor is measured using Microbeta2 (PerkinElmer) at a measurement time of 1 min/well. The Saturation curve is drawn from the measured value, and the Kd value is calculated from the slope of the Scatchard Plot.
A compound solution dissolved in DMSO is dispensed to a microplate by 0.5 µL, and a cell membrane and a hot ligand are each diluted with an Assay buffer. […] The radioactivity of [^3H]-Mesulergine bound to the 5-HT2C receptor is measured using Microbeta2 (PerkinElmer) at a measurement time of 1 min/well. […] Finally, the Ki value is calculated from the dose-response curve. […]

Ki [nM]	Structure (SMILES)
2.09	Cn1ncc(Br)c1-c1cc(Nc2ncc(Cl)cn2)ccc1OCCO [Compound I-119]
3.82	Cc1nc(C)c(-c2cc(Nc3ncc(C(F)(F)F)cc3F)c(F)cc2OCCO)c(C)n1 [Compound I-146]
